This note sets out measurements from US6953793B2 (priority 2000, dated 2005).

By UniProt entry, the sequences of proteins in these tests, tags left out. Residues count along the entry.
UniProt P25774, 115-331: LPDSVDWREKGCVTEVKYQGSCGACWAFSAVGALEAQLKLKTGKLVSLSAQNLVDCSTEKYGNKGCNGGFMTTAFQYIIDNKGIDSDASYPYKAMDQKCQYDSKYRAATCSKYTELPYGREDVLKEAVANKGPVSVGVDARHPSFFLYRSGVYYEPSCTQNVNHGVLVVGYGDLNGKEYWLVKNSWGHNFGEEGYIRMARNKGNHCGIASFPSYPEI

As a reminder, the IC50 is the concentration at which inhibition is half-maximal.

For the first assay, the target named is T1, Recombinant human cathepsin S (CatS) (Homo sapiens, UniProt P25774).
T1 construct: made in house; host or cells: baculovirus system (insect cells)
Briefly: biochemical.
Conditions: not given
For `CCNC(=O)N1CCc2c(c(-c3ccc(Cl)c(C)c3)nn2CC(O)CN2CCC(n3c(=O)[nH]c4ccccc43)CC2)C1` (stereo not drawn) [Example 272, 3-(4-Chloro-3-methyl-phenyl)-1-{2-hydroxy-3-[4-(2-oxo-2,3-dihydro-benzoimidazol-1-yl)-piperidin-1-yl]-propyl}-1,4,6,7-tetrahydro-pyrazolo[4,3-c]pyridine-5-carboxylic acid ethylamide], the half-maximal inhibitory concentration (IC50) amounted to 330 nM.
Turning to `CS(=O)(=O)N1CCc2c(c(-c3ccc(Br)cc3)nn2CC(O)CN2CCC(n3c(=O)n(CCN4CCOCC4)c4ccc(Cl)cc43)CC2)C1` (stereo not drawn) [Example 304, 3-(1-{3-[3-(4-Bromo-phenyl)-5-methanesulfonyl-4,5,6,7-tetrahydro-pyrazolo[4,3-c]pyridin-1-yl]-2-hydroxy-propyl}-piperidin-4-yl)-5-chloro-1-(2-morpholin-4-yl-ethyl)-1,3-dihydrobenzoimidazol-2-one], the IC50 came to 140 nM.
For the molecule `CS(=O)(=O)N1CCc2c(c(-c3ccc(C(F)(F)F)cc3)nn2CCCN2CCC(N3C(=O)NC4CCCCC43)CC2)C1` (stereo not drawn) [Example 101, 1-(1-{3-[5-Methanesulfonyl-3-(4-trifluoromethyl-phenyl)-4,5,6,7-tetrahydro-pyrazolo[4,3-c]pyridin-1-yl]-propyl}-piperidin-4-yl)-octahydro-benzoimidazol-2-one], the IC50 stood at 510 nM.
Same read-out and setting: in the case of `CC(=O)N1CCc2c(c(-c3ccc(Cl)c(C)c3)nn2CC(O)CN2CCC(n3c(=O)oc4ccc(Cl)cc43)CC2)C1` (stereo not drawn) [Example 396, 3-(1-{3-[5-Acetyl-3-(4-chloro-3-methyl-phenyl)-4,5,6,7-tetrahydro-pyrazolo[4,3-c]pyridin-1-yl]-2-hydroxy-propyl}-piperidin-4-yl)-5-chloro-3H-benzooxazol-2-one] it was 310 nM; in that of `CS(=O)(=O)N1CCc2c(c(-c3ccc(C(F)(F)F)cc3)nn2CC(O)CN2CCC(c3nc4ccccc4o3)CC2)C1` (stereo not drawn) [Example 113, 1-(4-Benzooxazol-2-yl-piperidin-1-yl)-3-[5-methanesulfonyl-3-(4-trifluoromethyl-phenyl)-4,5,6,7-tetrahydro-pyrazolo[4,3-c]pyridin-1-yl]-propan-2-ol], 110 nM.
In the case of `CS(=O)(=O)N1CCc2c(c(-c3ccc(C(F)(F)F)cc3)nn2CC(O)CN2CCC(n3c(=O)oc4cccnc43)CC2)C1` (stereo not drawn) [Example 397, 3-(1-{2-Hydroxy-3-[5-methanesulfonyl-3-(4-trifluoromethyl-phenyl)-4,5,6,7-tetrahydro-pyrazolo[4,3-c]pyridin-1-yl]-propyl}-piperidin-4-yl)-3H-oxazolo[4,5-b]pyridin-2-one], the IC50 is 120 nM.
For `COc1ccc2c(c1)[nH]c(=O)n2C1CCN(CC(O)Cn2nc(-c3ccc(Br)cc3)c3c2CCN(C(C)=O)C3)CC1` (stereo not drawn) [Example 285, 1-(1-{3-[5-Acetyl-3-(4-bromo-phenyl)-4,5,6,7-tetrahydro-pyrazolo[4,3-c]pyridin-1-yl]-2-hydroxy-propyl}-piperidin-4-yl)-5-methoxy-1,3-dihydro-benzoimidazol-2-one], the IC50 was determined as 130 nM.
With `CC(=O)N1CCc2c(c(-c3ccc(I)cc3)nn2CC(O)CN2CCC(n3c(=O)[nH]c4ccc(F)cc43)CC2)C1` (stereo not drawn) [Example 267, 1-(1-{3-[5-Acetyl-3-(4-iodo-phenyl)-4,5,6,7-tetrahydro-pyrazolo[4,3-c]pyridin-1-yl]-2-hydroxy-propyl}-piperidin-4-yl)-6-fluoro-1,3-dihydro-benzoimidazol-2-one], the IC50 is 280 nM.
On the same count and under the same terms, with `CC(=O)N1CCc2c(c(-c3ccc(S(C)(=O)=O)cc3)nn2CC(O)CN2CCC(n3c(=O)[nH]c4ccccc43)CC2)C1` (stereo not drawn) [Example 258, 1-(1-{3-[5-Acetyl-3-(4-methanesulfonyl-phenyl)-4,5,6,7-tetrahydro-pyrazolo[4,3-c]pyridin-1-yl]-2-hydroxy-propyl}-piperidin-4-yl)-1,3-dihydro-benzoimidazol-2-one] the figure was 230 nM.
For `CC(=O)N1CCc2c(c(-c3ccc(SC(F)(F)F)cc3)nn2CC(O)CN2CCC(n3c(=O)[nH]c4ccccc43)CC2)C1` (stereo not drawn) [Example 257, 1-(1-{3-[5-Acetyl-3-(4-trifluoromethylsulfanyl-phenyl)-4,5,6,7-tetrahydro-pyrazolo[4,3-c]pyridin-1-yl]-2-hydroxy-propyl}-piperidin-4-yl)-1,3-dihydro-benzoimidazol-2-one], the half-maximal inhibitory concentration (IC50) is 260 nM.
Consider `CC(=O)N1CCc2c(c(-c3ccc(Cl)c(C)c3)nn2CC(O)CN2CCC(c3nc4ccccc4s3)CC2)C1` (stereo not drawn) [Example 125, 1-[1-[3-(4-Benzothiazol-2-yl-piperidin-1-yl)-2-hydroxy-propyl]-3-(4-chloro-3-methyl-phenyl)-1,4,6,7-tetrahydro-pyrazolo[4,3-c]pyridin-5-yl]-ethanone], for which the IC50 is 250 nM.
Same read-out and setting: with `CC(C)(C)OC(=O)N1CCc2c(c(-c3ccc(Cl)c(Cl)c3)nn2CC(O)CN2CCC(n3nnc4ccccc43)CC2)C1` (stereo not drawn) [Example 183, 1-[3-(4-Benzotriazol-1-yl-piperidin-1-yl)-2-hydroxy-propyl]-3-(3,4-dichloro-phenyl)-1,4,6,7-tetrahydro-pyrazolo[4,3-c]pyridine-5-carboxylic acid tert-butyl ester] the figure was 2300 nM; with `CS(=O)(=O)Oc1nc2ccccc2n1C1CCN(CCCn2nc(-c3ccc(Br)cc3)c3c2CCN(S(C)(=O)=O)C3)CC1` [Example 104, Methanesulfonic acid 1-(1-{3-[3-(4-bromo-phenyl)-5-methanesulfonyl-4,5,6,7-tetrahydro-pyrazolo[4,3-c]pyridin-1-yl]-propyl}-piperidin-4-yl)-1H-benzoimidazol-2-yl ester], 120 nM; with `CS(=O)(=O)N1CCc2c(c(-c3ccc(Br)cc3)nn2CC(O)CN2CCC(Oc3ccccc3C#N)CC2)C1` (stereo not drawn) [Example 246, 2-(1-{3-[3-(4-Bromo-phenyl)-5-methanesulfonyl-4,5,6,7-tetrahydro-pyrazolo[4,3-c]pyridin-1-yl]-2-hydroxy-propyl}-piperidin-4-yloxy)-benzonitrile], 300 nM.
On the same count and under the same terms, in the case of `COc1ccc(OC2CCN(CC(O)Cn3nc(-c4ccc(Br)cc4)c4c3CCN(C(C)=O)C4)CC2)cc1` (stereo not drawn) [Example 236, 1-(3-(4-Bromo-phenyl)-1-{2-hydroxy-3-[4-(4-methoxy-phenoxy)-piperidin-1-yl]-propyl}-1,4,6,7-tetrahydro-pyrazolo[4,3-c]pyridin-5-yl)-ethanone] it was 710 nM.
As to `CC(=O)N1CCc2c(c(-c3ccc(Cl)c(C)c3)nn2C[C@H](O)CN2CCC(n3c(=O)[nH]c4ccccc43)CC2)C1` [Example 294, (R)-1-(1-{3-[5-Acetyl-3-(4-chloro-3-methyl-phenyl)-4,5,6,7-tetrahydro-pyrazolo[4,3-c]pyridin-1-yl]-2-hydroxy-propyl}-piperidin-4-yl)-1,3-dihydro-benzoimidazol-2-one], the half-maximal inhibitory concentration (IC50) came to 280 nM.
Same read-out and setting: in the case of `CC(=O)N1CCc2c(c(-c3ccc(Cl)c(Cl)c3)nn2CC(O)CN2CCC(n3c(=O)[nH]c4ccccc43)CC2)C1` (stereo not drawn) [Example 290, 1-(1-{3-[5-Acetyl-3-(3,4-dichloro-phenyl)-4,5,6,7-tetrahydro-pyrazolo[4,3-c]pyridin-1-yl]-2-hydroxy-propyl}-piperidin-4-yl)-1,3-dihydro-benzoimidazol-2-one] it was 150 nM.
For the molecule `CC(=O)N1CCc2c(c(-c3ccc(OC(F)(F)F)cc3)nn2CC(O)CN2CCC(n3c(=O)[nH]c4ccccc43)CC2)C1` (stereo not drawn) [Example 252, 1-(1-{3-[5-Acetyl-3-(4-trifluoromethoxy-phenyl)-4,5,6,7-tetrahydro-pyrazolo[4,3-c]pyridin-1-yl]-2-hydroxy-propyl}-piperidin-4-yl)-1,3-dihydro-benzoimidazol-2-one], the 50% inhibitory concentration (IC50) was determined as 130 nM.
As to `Cn1c(=O)n(C2CCN(C[C@@H](O)Cn3nc(-c4ccc(C(F)(F)F)cc4)c4c3CCN(S(C)(=O)=O)C4)CC2)c2ccccc21` [Example 383, (R)-1-(1-{2-Hydroxy-3-[5-methanesulfonyl-3-(4-trifluoromethyl-phenyl)-4,5,6,7-tetrahydro-pyrazolo[4,3-c]pyridin-1-yl]-propyl}-piperidin-4-yl)-3-methyl-1,3-dihydro-benzoimidazol-2-one], the half-inhibitory concentration (IC50) stood at 180 nM.
Same read-out and setting: with `CC(=O)N1CCc2c(c(-c3ccc(Cl)c(C)c3)nn2CC(O)CN2CCC(n3c(=O)[nH]c4ccc(C)cc43)CC2)C1` (stereo not drawn) [Example 277, 1-(1-{3-[5-Acetyl-3-(4-chloro-3-methyl-phenyl)-4,5,6,7-tetrahydro-pyrazolo[4,3-c]pyridin-1-yl]-2-hydroxy-propyl}-piperidin-4-yl)-6-methyl-1,3-dihydro-benzoimidazol-2-one] the figure was 60 nM; with `CS(=O)(=O)N1CCc2c(c(-c3ccc(Br)cc3)nn2CC(O)CN2CCC(n3c(=O)[nH]c4cccnc43)CC2)C1` (stereo not drawn) [Example 371, 3-(1-{3-[3-(4-Bromo-phenyl)-5-methanesulfonyl-4,5,6,7-tetrahydro-pyrazolo[4,3-c]pyridin-1-yl]-2-hydroxy-propyl}-piperidin-4-yl)-1,3-dihydro-imidazo[4,5-b]pyridin-2-one], 80 nM.
Same read-out and setting: with `CCOC(=O)Cn1c(=O)n(C2CCN(CC(O)Cn3nc(-c4ccc(Cl)c(C)c4)c4c3CCN(C(C)=O)C4)CC2)c2ccccc21` (stereo not drawn) [Example 305, [3-(1-{3-[5-Acetyl-3-(4-chloro-3-methyl-phenyl)-4,5,6,7-tetrahydro-pyrazolo[4,3-c]pyridin-1-yl]-2-hydroxy-propyl}-piperidin-4-yl)-2-oxo-2,3-dihydro-benzoimidazol-1-yl]-acetic acid ethyl ester] the figure was 110 nM.
Still for that read-out and setting: with `CS(=O)(=O)N1CCc2c(c(-c3ccc(C(F)(F)F)cc3)nn2CC(O)CN2CCC(c3nc4ccccc4s3)CC2)C1` (stereo not drawn) [Example 114, 1-(4-Benzothiazol-2-yl-piperidin-1-yl)-3-[5-methanesulfonyl-3-(4-trifluoromethyl-phenyl)-4,5,6,7-tetrahydro-pyrazolo[4,3-c]pyridin-1-yl]-propan-2-ol] the figure was 100 nM.

Still in this assay, the particulars now being: pH 5; read-out: IC50.
Consider “1-[1-{2-Hydroxy-3-[4-(5-methyl-benzooxazol-2-yl)-piperidin-1-yl]-propyl}-3-trifluoromethyl-phenyl)-1,4,6,7-tetrahydro-pyrazolo[4,3-c]pyridin-5-yl]-ethanone [Example 401]”, for which the 50% inhibitory concentration (IC50) stood at 320 nM.
